Source: ChEMBL document CHEMBL5247599, “New β-arylchalcogeno amines with procognitive properties targeting Carbonic Anhydrases and Monoamine Oxidases” (Eur J Med Chem, 2022)

Sequences of proteins named here, by UniProt entry; tags and fusion partners are left off. A change or cut given only in a name is not applied to a line headed by its entry.
UniProt Q9Y2D0: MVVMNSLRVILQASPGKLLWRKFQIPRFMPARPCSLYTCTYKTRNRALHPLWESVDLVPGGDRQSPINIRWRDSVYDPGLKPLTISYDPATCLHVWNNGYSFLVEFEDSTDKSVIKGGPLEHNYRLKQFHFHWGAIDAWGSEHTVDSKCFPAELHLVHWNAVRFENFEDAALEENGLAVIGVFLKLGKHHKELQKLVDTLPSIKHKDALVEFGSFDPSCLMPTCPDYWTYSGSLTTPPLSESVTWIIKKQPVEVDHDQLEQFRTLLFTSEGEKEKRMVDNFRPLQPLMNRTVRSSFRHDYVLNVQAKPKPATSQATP
UniProt O43570: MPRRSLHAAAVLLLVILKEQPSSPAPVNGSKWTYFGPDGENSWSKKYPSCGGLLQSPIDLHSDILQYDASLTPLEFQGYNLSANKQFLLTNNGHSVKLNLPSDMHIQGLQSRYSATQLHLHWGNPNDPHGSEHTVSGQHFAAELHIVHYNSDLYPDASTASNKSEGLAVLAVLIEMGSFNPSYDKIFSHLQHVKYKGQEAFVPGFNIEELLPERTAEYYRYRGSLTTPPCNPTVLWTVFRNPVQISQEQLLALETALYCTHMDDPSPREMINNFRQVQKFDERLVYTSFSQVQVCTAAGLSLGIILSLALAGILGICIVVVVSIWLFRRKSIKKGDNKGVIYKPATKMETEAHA
UniProt Q8N1Q1: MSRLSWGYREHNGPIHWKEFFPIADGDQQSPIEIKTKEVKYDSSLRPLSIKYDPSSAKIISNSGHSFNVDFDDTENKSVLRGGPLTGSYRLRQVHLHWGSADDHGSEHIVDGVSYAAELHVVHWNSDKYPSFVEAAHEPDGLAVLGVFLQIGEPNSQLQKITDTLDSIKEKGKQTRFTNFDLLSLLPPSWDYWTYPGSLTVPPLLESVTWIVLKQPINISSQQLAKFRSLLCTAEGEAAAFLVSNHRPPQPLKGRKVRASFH
UniProt Q9ULX7: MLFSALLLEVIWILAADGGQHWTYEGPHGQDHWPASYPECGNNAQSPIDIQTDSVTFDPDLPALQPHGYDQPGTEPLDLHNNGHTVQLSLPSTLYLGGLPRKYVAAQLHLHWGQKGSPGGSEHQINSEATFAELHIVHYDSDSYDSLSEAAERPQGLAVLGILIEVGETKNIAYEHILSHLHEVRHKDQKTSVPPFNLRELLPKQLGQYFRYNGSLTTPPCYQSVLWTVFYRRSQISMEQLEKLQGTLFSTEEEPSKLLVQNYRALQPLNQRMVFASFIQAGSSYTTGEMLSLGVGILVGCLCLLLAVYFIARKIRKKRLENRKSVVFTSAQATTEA

How the values were obtained:
Details in all cases: filed as activator
[1] = molecular target: Carbonic anhydrase 5B, mitochondrial (Homo sapiens) (UniProt Q9Y2D0); assay: Binding affinity to human CA5b by phenol red dye based stopped flow CO2 hydration assay
[2] = molecular target: Carbonic anhydrase 9 (Homo sapiens) (UniProt Q16790); assay: Binding affinity to human CA9 by phenol red dye based stopped flow CO2 hydration assay
[3] = molecular target: Carbonic anhydrase 12 (Homo sapiens) (UniProt O43570); assay: Binding affinity to human CA12 by phenol red dye based stopped flow CO2 hydration assay
[4] = molecular target: Carbonic anhydrase 13 (Homo sapiens) (UniProt Q8N1Q1); assay: Binding affinity to human CA13 by phenol red dye based stopped flow CO2 hydration assay
[5] = molecular target: Carbonic anhydrase 14 (Homo sapiens) (UniProt Q9ULX7); assay: Binding affinity to human CA14 by phenol red dye based stopped flow CO2 hydration assay

Ka [1]: 0.072 µM | Ka [2]: 9.3 µM | Ka [3]: 0.37 µM | Ka [4]: 0.051 µM | Ka [5]: 7.21 µM
Structure (SMILES): N[C@H](Cc1ccccc1)C(=O)O [D-PHENYLALANINE]
